Measured values: patent US12297244B2, “Systems and methods for inhibiting γ-secretase production of amyloid-β peptides” (Rensselaer Polytechnic Institute, priority 2020, dated 2025)

By UniProt entry, the sequences of proteins in these tests, tags left out. Residues count along the entry.
UniProt P05067, whole entry: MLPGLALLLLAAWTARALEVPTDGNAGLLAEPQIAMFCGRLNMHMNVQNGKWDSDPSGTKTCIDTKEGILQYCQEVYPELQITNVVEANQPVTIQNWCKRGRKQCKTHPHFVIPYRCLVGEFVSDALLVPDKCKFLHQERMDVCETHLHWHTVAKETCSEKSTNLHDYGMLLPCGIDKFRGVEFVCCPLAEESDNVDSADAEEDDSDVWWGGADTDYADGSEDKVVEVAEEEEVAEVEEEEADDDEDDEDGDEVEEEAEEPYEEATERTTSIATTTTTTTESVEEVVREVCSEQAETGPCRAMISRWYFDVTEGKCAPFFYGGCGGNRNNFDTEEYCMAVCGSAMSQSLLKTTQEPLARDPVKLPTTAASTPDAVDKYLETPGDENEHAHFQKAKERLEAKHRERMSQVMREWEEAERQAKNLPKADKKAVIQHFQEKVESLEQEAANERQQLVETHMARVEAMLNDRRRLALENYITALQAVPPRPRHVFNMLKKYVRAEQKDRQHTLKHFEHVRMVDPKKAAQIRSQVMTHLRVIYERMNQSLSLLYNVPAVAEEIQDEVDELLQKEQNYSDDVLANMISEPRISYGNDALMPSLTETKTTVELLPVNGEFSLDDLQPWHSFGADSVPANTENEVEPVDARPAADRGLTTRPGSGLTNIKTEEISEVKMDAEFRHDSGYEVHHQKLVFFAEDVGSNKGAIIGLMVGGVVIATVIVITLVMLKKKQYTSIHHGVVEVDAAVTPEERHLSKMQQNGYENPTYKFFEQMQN
UniProt P05067, 699-726 limits assumed: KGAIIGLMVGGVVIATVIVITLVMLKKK

Tests used:
APPTM = APPTM (Homo sapiens, UniProt P05067); assay: NMR titration and mass spectroscopy binding to APPTM; details: NMR titration, mass spectroscopy
Source text: Compound N1 inhibits A production in AlphaLISA-secretase assay (see FIG. 8A). Further, N1 binds APPTM at the C-terminal region, non-covalently in NMR titration (see FIG. 8B).

[1] = biological target: γ-secretase in the HeLa membrane (Homo sapiens, UniProt P05067); assay: AlphaLISA γ-secretase assay with biotinylated Sb4 (APP sequence) substrate; details: read-out: IC50 in AlphaLISA γ-secretase assay; FIG. 7
Description: Referring now to FIG. 1, and without wishing to be bound by theory, γ-secretase cleaves within the transmembrane domain of the amyloid precursor protein (APPTM) to release Aβ, which aggregates to form neurotoxic oligomers and fibrils. […] Formula III decreased the production of Aβ40 and Aβ42 by γ-secretase in a dose dependent manner (FIG. 2). An IC50 value of 1.9 μM was obtained for the inhibition of Aβ42 production and 3.9 μM for the inhibition of Aβ40 production. […] Similar inhibition effects were also observed in a gel-based assay using MBP-APPTM fusion protein as the substrate and the presenilin homolog (PSH) MAMRE50 as an enzyme.

Which “binding to APPTM” value (APPTM) does the source give for `CC(C)[C@H](NC(=O)c1cc(C(C)(C)C)cc(C(C)(C)C)c1)C(=O)N[C@@H](CSC(c1ccccc1)(c1ccccc1)c1ccccc1)C(=O)O` here?
The value was “bind non-covalently to C-terminal region of APPTM”.

And the IC50 [1]?
Its IC50 is 100 nM.
